# Antibody variant affinities, Ab-95 light chain, assay 2

All variants were tested on one target, the spike HR2 peptide PDVDLGDISGINAS (SARS-CoV-2).

Each scFv is VH, a (GGGGS)3 linker, VL, as in the parent Ab-95, and differs from it in the CDRs of the light chain only.
VH: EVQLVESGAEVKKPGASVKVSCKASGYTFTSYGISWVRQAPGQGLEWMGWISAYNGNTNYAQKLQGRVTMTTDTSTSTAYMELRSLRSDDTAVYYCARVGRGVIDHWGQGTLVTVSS
VL: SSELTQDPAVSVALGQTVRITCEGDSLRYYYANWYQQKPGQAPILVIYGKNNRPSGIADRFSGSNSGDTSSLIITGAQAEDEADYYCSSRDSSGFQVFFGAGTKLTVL

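The parent was found by panning a naive human phage display library on the peptide. AAYL52 was designed without a model: most single CDR substitutions and a random sample of double and triple ones. AlphaSeq pools MATa yeast showing the antibodies with MATalpha yeast showing the peptide. Mating (16 h, 30 °C) was followed by selection of diploids and sequencing of their barcodes. A regression on co-assayed BCL2-family reference pairs converts the normalised counts of each replicate to an apparent Kd. Mating was done three times.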

Substitutions are numbered in sequence along the VL above, starting at 1 (not Kabat).
The read-out is the apparent dissociation constant on a log10 scale (nM): the lower, the stronger.
"n.d." marks a missing value. The strain was present, yet no cells mated with the target were sequenced in that replicate, which points to weak or no binding.

{"changes": "R53Q/S55P/S88V", "log10 Kd, replicates": "n.d. n.d. n.d.", "empty controls": "1 of 9 (3.07)"}
{"changes": "Y31D/G49H/F95D", "log10 Kd, replicates": "2.22 2.46 3.03", "empty controls": "0 of 9"}
{"changes": "Y31T/S92K/F98S", "log10 Kd, replicates": "2.13 1.71 1.54", "empty controls": "2 of 9 (4.10)"}
{"changes": "K50E/D91T/V97F", "log10 Kd, replicates": "n.d. 3.38 n.d.", "empty controls": "4 of 9 (3.61)"}
{"changes": "L27E/K50D/D91V", "log10 Kd, replicates": "4.00 3.68 3.76", "empty controls": "1 of 9 (4.01)"}
{"changes": "S26H/S92K/S93A", "log10 Kd, replicates": "2.60 2.79 3.04", "empty controls": "3 of 9 (3.75)"}
{"changes": "N52A/S89F/F98W", "log10 Kd, replicates": "5.05 n.d. n.d.", "empty controls": "3 of 9 (4.40)"}
{"changes": "S26T/Y31T/N51D", "log10 Kd, replicates": "5.39 3.71 4.16", "empty controls": "7 of 9 (4.11)"}
{"changes": "Y31S/S55I/R90K", "log10 Kd, replicates": "3.41 2.67 2.74", "empty controls": "3 of 9 (4.03)"}
{"changes": "G24H/Y31C/S88A", "log10 Kd, replicates": "2.83 2.85 3.22", "empty controls": "7 of 9 (3.98)"}
{"changes": "N51A/P54L/S92W", "log10 Kd, replicates": "n.d. 2.66 n.d.", "empty controls": "1 of 9 (3.38)"}
{"changes": "S89Y/S92W", "log10 Kd, replicates": "2.66 2.19 1.95", "empty controls": "5 of 9 (3.96)"}
{"changes": "Y31L/G49M/K50C", "log10 Kd, replicates": "n.d. n.d. n.d.", "empty controls": "1 of 9 (3.49)"}
{"changes": "S26F/N51P/R90V", "log10 Kd, replicates": "4.47 3.56 n.d.", "empty controls": "3 of 9 (4.71)"}
{"changes": "Y31L/S88K/V97A", "log10 Kd, replicates": "n.d. 3.05 2.92", "empty controls": "1 of 9 (3.06)"}
{"changes": "N33L/N52F/R53C", "log10 Kd, replicates": "4.47 3.45 4.59", "empty controls": "5 of 9 (4.74)"}
{"changes": "R28W/A32M/N33A", "log10 Kd, replicates": "3.69 n.d. 3.67", "empty controls": "4 of 9 (4.14)"}
{"changes": "K50P/S55D", "log10 Kd, replicates": "2.12 2.13 1.46", "empty controls": "3 of 9 (3.14)"}
{"changes": "E23C", "log10 Kd, replicates": "3.53 2.83 2.62", "empty controls": "2 of 9 (3.95)"}
{"changes": "K50H/R90I/F95Y", "log10 Kd, replicates": "3.24 4.38 2.62", "empty controls": "4 of 9 (4.07)"}
{"changes": "G24P/Y30D/S93K", "log10 Kd, replicates": "3.91 3.07 2.72", "empty controls": "5 of 9 (3.55)"}
{"changes": "S26T/A32I/Q96G", "log10 Kd, replicates": "n.d. n.d. n.d.", "empty controls": "3 of 9 (3.69)"}
{"changes": "N33H/K50C", "log10 Kd, replicates": "n.d. 4.71 4.44", "empty controls": "3 of 9 (3.27)"}

2 of these entries, quoted again:

{"changes": "G24P/Y30D/S93K", "log10 Kd, replicates": "3.91 3.07 2.72", "empty controls": "5 of 9 (3.55)"}
{"changes": "K50P/S55D", "log10 Kd, replicates": "2.12 2.13 1.46", "empty controls": "3 of 9 (3.14)"}

Background: pairings of library AAYL52 with three empty control strains gave a value in 28% of cases (median 3.91, 5th percentile 2.90). Values in that range, when seen in few replicates, are hard to tell from nonspecific mating. For each scFv, signals with the empty controls are counted beside the result, with their mean in brackets.
Parent in this assay: reference entry 2.31, copy in this library 2.25.

The measurements come from Engelhart et al. 2022 (doi:10.1038/s41597-022-01779-4) through the FLAb antibody collection.